Apparent affinities of Ab-14 variants for a coronavirus HR2 peptide

Antigen: PDVDLGDISGINAS, a 14-residue peptide of the SARS-CoV-2 spike HR2 region.

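The starting antibody came from a phage panning campaign against this peptide. Library AAYL50 holds single substitutions and randomly drawn double and triple substitutions in the CDRs. In AlphaSeq, yeast of one mating type display the scFv and yeast of the other type display the target. After mating in shaken culture at 30 °C for 16 h, diploids were selected and their barcode pairs sequenced. Each replicate has its own calibration line, from reference interactions of the BCL2 family. The assay was run in three technical replicates.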

Parent scFv Ab-14: VH joined to VL by the linker GGGGSGGGGSGGGGS. Changes lie in the light chain CDRs alone.
VH: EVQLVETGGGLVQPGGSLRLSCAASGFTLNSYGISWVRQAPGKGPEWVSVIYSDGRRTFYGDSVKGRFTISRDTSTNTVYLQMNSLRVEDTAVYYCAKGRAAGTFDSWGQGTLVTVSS
VL: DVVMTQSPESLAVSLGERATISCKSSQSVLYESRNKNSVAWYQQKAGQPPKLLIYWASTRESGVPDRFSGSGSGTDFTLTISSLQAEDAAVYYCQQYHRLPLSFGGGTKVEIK

Variants are written as CDR1, CDR2 and CDR3 of the light chain (limits as in the source). Parent: KSSQSVLYESRNKNSVA, WASTRES, QQYHRLPLS. The read-out is the apparent dissociation constant on a log10 scale (nM): the lower, the stronger. Where no diploid with the target was found in that replicate, the entry reads "ND": below detection, most likely a poor binder, though not proof of it. Parent in this assay: reference entry 0.65, copy in this library 1.68. Three control strains display no target. For library AAYL50, 18% of the pairings with them gave a signal, with a median of 4.19 and one signal in twenty below 2.99, so weak values seen in few replicates may be background. Also given: how often the same scFv was detected with the empty control strains, with their mean in brackets.

{"CDR-L1": "KSSQSVTYESRNKYSVA", "CDR-L2": "WASTRES", "CDR-L3": "QQYCRLPLS", "log10 Kd (nM) by replicate": "1.45 1.69 1.51", "signal with controls": "1/9 (4.43)"}
{"CDR-L1": "KSSQSVLYENLNKNSVA", "CDR-L2": "WMSTRES", "CDR-L3": "QQYHRLPLS", "log10 Kd (nM) by replicate": "1.26 0.89 1.11", "signal with controls": "1/9 (5.22)"}
{"CDR-L1": "KSSDSVLYESRNKNSVA", "CDR-L2": "WASTRES", "CDR-L3": "QQYKRSPLS", "log10 Kd (nM) by replicate": "ND ND ND", "signal with controls": "3/9 (3.86)"}
{"CDR-L1": "KSYQSVLYESRNKNSVA", "CDR-L2": "CAQTRES", "CDR-L3": "QQYHRLPLS", "log10 Kd (nM) by replicate": "ND ND ND", "signal with controls": "0/9"}
{"CDR-L1": "KSRQSVLYESRNKCIVA", "CDR-L2": "WASTRES", "CDR-L3": "QQYHRLPLS", "log10 Kd (nM) by replicate": "ND ND ND", "signal with controls": "0/9"}
{"CDR-L1": "KSSQSRLYESWNKNSVA", "CDR-L2": "WAGTRES", "CDR-L3": "QQYHRLPLS", "log10 Kd (nM) by replicate": "4.03 4.28 ND", "signal with controls": "3/9 (4.46)"}
{"CDR-L1": "KSSQSVLYESRNRNSVA", "CDR-L2": "PASTRES", "CDR-L3": "QQYHRLDLS", "log10 Kd (nM) by replicate": "ND ND ND", "signal with controls": "2/9 (4.69)"}
{"CDR-L1": "KSSGSFLYESRNKNSVA", "CDR-L2": "WASTRES", "CDR-L3": "PQYHRLPLS", "log10 Kd (nM) by replicate": "0.93 0.97 1.09", "signal with controls": "1/9 (5.86)"}
{"CDR-L1": "KSAQSVLGESRNKNSVG", "CDR-L2": "WASTRES", "CDR-L3": "QQYHRLPLS", "log10 Kd (nM) by replicate": "ND ND ND", "signal with controls": "2/9 (3.42)"}
{"CDR-L1": "KSSQSVLYESRNKNSVA", "CDR-L2": "WACTRES", "CDR-L3": "QQYPRLPLS", "log10 Kd (nM) by replicate": "ND 2.34 2.50", "signal with controls": "1/9 (2.33)"}
{"CDR-L1": "KSSQSVLYESRNKNSVA", "CDR-L2": "VASTRES", "CDR-L3": "QQYFILPLS", "log10 Kd (nM) by replicate": "3.62 4.28 ND", "signal with controls": "2/9 (3.37)"}
{"CDR-L1": "KSSQSFLMESRNKNSVA", "CDR-L2": "WASTRES", "CDR-L3": "QQYHRLPLF", "log10 Kd (nM) by replicate": "1.65 1.74 2.03", "signal with controls": "9/9 (4.52)"}
{"CDR-L1": "KSSQSVGYESRNKNSVA", "CDR-L2": "WASFRES", "CDR-L3": "QQYHRLPMS", "log10 Kd (nM) by replicate": "2.92 2.99 2.82", "signal with controls": "1/9 (3.43)"}
{"CDR-L1": "GDSQSVLYESRNKNSVA", "CDR-L2": "WASTRET", "CDR-L3": "QQYHRLPLS", "log10 Kd (nM) by replicate": "2.27 2.19 2.59", "signal with controls": "1/9 (3.14)"}
{"CDR-L1": "KSPQSVLYESRNKNSVM", "CDR-L2": "WASTRES", "CDR-L3": "LQYHRLPLS", "log10 Kd (nM) by replicate": "ND ND 4.33", "signal with controls": "1/9 (3.14)"}
{"CDR-L1": "DSSQSVLYESRNKISTA", "CDR-L2": "WASTRES", "CDR-L3": "QQYHRLPLS", "log10 Kd (nM) by replicate": "ND 3.46 3.96", "signal with controls": "4/9 (4.24)"}
{"CDR-L1": "KSSQSVLYESRNKNSVA", "CDR-L2": "WASTRES", "CDR-L3": "QQYYRLHYS", "log10 Kd (nM) by replicate": "0.99 0.93 1.21", "signal with controls": "0/9"}
{"CDR-L1": "KSSQSYLYESRNKNSVA", "CDR-L2": "WASTRES", "CDR-L3": "QDYHRLFLS", "log10 Kd (nM) by replicate": "2.86 2.28 1.67", "signal with controls": "1/9 (3.49)"}
{"CDR-L1": "KSPQSVLYESRNKNSVH", "CDR-L2": "WASTYES", "CDR-L3": "QQYHRLPLS", "log10 Kd (nM) by replicate": "ND ND ND", "signal with controls": "0/9"}
{"CDR-L1": "KISQSVLYESRNKNSVA", "CDR-L2": "WASTREF", "CDR-L3": "QQYHRLILS", "log10 Kd (nM) by replicate": "ND ND ND", "signal with controls": "1/9 (5.43)"}
{"CDR-L1": "KSSQSVLYEYREKNSVA", "CDR-L2": "WASTRES", "CDR-L3": "QQYHRLPLS", "log10 Kd (nM) by replicate": "4.08 3.35 2.80", "signal with controls": "3/9 (3.52)"}
{"CDR-L1": "KSSQSVLYESRNKNSVA", "CDR-L2": "GAWTVES", "CDR-L3": "QQYHRLPLS", "log10 Kd (nM) by replicate": "ND ND ND", "signal with controls": "2/9 (3.67)"}
{"CDR-L1": "KVSGSVLYESRNKGSVA", "CDR-L2": "WASTRES", "CDR-L3": "QQYHRLPLS", "log10 Kd (nM) by replicate": "0.57 0.86 0.79", "signal with controls": "2/9 (4.09)"}
{"CDR-L1": "KNSQPVLYESRRKNSVA", "CDR-L2": "WASTRES", "CDR-L3": "QQYHRLPLS", "log10 Kd (nM) by replicate": "2.55 2.81 2.38", "signal with controls": "4/9 (4.81)"}
{"CDR-L1": "KISQSVLYESRNKNSVA", "CDR-L2": "WISTRIS", "CDR-L3": "QQYHRLPLS", "log10 Kd (nM) by replicate": "0.54 0.78 0.65", "signal with controls": "3/9 (5.30)"}
{"CDR-L1": "KSSQSALYLSRNKNSVA", "CDR-L2": "WASCRES", "CDR-L3": "QQYHRLPLS", "log10 Kd (nM) by replicate": "ND ND ND", "signal with controls": "3/9 (3.42)"}
{"CDR-L1": "KSSQKVLYESRNYNSVA", "CDR-L2": "WASTRES", "CDR-L3": "QQYHRLPLS", "log10 Kd (nM) by replicate": "ND ND ND", "signal with controls": "1/9 (3.10)"}

The 2 strongest on average among those seen in every replicate, once more:

| CDR-L1 | CDR-L2 | CDR-L3 | log10 Kd (nM) by replicate | signal with controls |
|---|---|---|---|---|
| KISQSVLYESRNKNSVA | WISTRIS | QQYHRLPLS | 0.54 0.78 0.65 | 3/9 (5.30) |
| KVSGSVLYESRNKGSVA | WASTRES | QQYHRLPLS | 0.57 0.86 0.79 | 2/9 (4.09) |

From the AlphaSeq antibody data of Engelhart et al. 2022 (doi:10.1038/s41597-022-01779-4), copy in the FLAb collection.